Measurements reported in article PMC4956214 (PLoS ONE, 2016).

By UniProt entry, the sequences of proteins in these tests, tags left out. Residues count along the entry.
UniProt P01308, 25-54, chain 1 of 2: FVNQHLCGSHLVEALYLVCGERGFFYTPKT
UniProt P01308, 90-110, chain 2 of 2: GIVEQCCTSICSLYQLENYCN

Tests used:
human insulin [1] = molecular target: human insulin (Homo sapiens, UniProt P01308); test: BLI; Octet RED, 25°C, 96-well microplates; biotinylated human insulin (25 μg/ml) immobilised on Streptavidin Biosensors; peptides in solution in a dilution series; kinetic buffer (1 mM phosphate, 15 mM NaCl, 0.1 mg/ml BSA, 0.002% Tween-20); association 1000 sec, dissociation 1000 sec; double reference subtraction (BSA reference)
human insulin [2] = molecular target: T1, human insulin (human, UniProt P01308 25-54; P01308 90-110, biotinylated with a NHS-PEO4-biotin kit; residues and chain not stated | biotinylated with a NHS-PEO4-biotin kit; residues and chain not stated); test: BLI; conditions: both partners purified
human insulin [3] = molecular target: T1, human insulin; test: BLI; Octet RED, 25°C, 96-well microplates; biotinylated human insulin (25 μg/ml) immobilised on Streptavidin Biosensors; peptides in solution in a dilution series; kinetic buffer (1 mM phosphate, 15 mM NaCl, 0.1 mg/ml BSA, 0.002% Tween-20); association 1000 sec, dissociation 1000 sec; double reference subtraction (BSA reference); conditions: both partners purified

Q: How did the Kd (human insulin [1]) turn out when peptide analogue 29 (HIR) was run?
A: 44.8 µM

Q: NLRESNNLSSLTNCSTIHGTLVIRN [peptide analogue 1 (SjIR-1 L1)] was tested. Which Kd (human insulin [2]) did it give?
A: 0.224 µM

Q: How did the Kd (human insulin [3]) turn out when SRTWSPPFESEDSQKH [peptide analogue 9 (HIR FnIII-2, α655-670; positive control)] was run?
A: 63.6 µM
